In article PMC5384962, “First-in-human studies of seletalisib, an orally bioavailable small-molecule PI3Kδ inhibitor for the treatment of immune and inflammatory diseases” (European Journal of Clinical Pharmacology, 2017):

Tested on: basophil degranulation
Test: Study-2 ex vivo basophil degranulation (anti-FcεR1-driven CD63 expression, whole blood)

For `[O-][n+]1cccc(-c2nc3c(Cl)cccc3cc2[C@@H](Nc2ncnc3cccnc23)C(F)(F)F)c1` [Seletalisib, seletalisib], the “basophil degranulation inhibition, multiple-dose day 14 compared with day 1” value was “lower levels of basophil degranulation inhibition”.
